The source of these data is ChEMBL document CHEMBL4190171, “Chemical probes and inhibitors of bromodomains outside the BET family” (Medchemcomm, 2016).

The chains behind the UniProt entries cited, without tags or fusion partners.
UniProt Q92831, whole entry: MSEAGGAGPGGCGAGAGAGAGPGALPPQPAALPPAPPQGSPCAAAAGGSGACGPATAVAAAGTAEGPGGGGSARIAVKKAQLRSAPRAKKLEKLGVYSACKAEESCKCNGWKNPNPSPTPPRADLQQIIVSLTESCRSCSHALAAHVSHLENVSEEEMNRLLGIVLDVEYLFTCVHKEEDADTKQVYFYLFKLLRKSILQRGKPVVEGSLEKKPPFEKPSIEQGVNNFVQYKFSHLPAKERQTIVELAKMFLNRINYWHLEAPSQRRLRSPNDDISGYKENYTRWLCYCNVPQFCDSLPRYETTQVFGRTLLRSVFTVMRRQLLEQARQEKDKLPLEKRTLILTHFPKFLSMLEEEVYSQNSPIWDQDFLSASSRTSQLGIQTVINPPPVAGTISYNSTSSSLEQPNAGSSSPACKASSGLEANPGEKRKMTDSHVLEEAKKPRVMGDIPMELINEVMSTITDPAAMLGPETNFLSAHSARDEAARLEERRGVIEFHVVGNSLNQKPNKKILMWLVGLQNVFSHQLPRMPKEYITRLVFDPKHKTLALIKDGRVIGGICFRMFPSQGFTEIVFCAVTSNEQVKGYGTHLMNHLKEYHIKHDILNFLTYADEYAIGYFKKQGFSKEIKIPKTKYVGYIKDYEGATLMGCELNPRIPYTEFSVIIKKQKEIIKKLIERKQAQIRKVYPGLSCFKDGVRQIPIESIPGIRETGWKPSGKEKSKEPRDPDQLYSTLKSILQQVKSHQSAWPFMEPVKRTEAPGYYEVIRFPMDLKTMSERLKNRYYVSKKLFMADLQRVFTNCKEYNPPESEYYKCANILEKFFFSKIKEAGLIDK

Each structure is given as a SMILES string.

This assay concerns the target Histone acetyltransferase KAT2B (Homo sapiens, UniProt Q92831).

What is called IC50 is the midpoint of a concentration-inhibition curve. High values mean weaker potency in that assay, low ones greater potency in that assay. For the compound `CC(C)C[C@H]1C[C@@H](Nc2cnn(C)c(=O)c2Cl)CN(C)C1`, the IC50 was determined as 0.013 µM.
